AlphaSeq binding of Ab-91 heavy chain variants to a spike HR2 peptide

The target is the same throughout: PDVDLGDISGINAS, from the HR2 region of SARS-CoV-2 spike.

Parent scFv Ab-91: VL joined to VH by three GGGGS repeats. Changes lie in the heavy chain CDRs alone.
VL: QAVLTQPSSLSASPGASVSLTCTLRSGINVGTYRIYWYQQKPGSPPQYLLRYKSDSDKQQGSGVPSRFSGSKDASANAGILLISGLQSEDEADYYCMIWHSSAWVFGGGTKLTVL
VH: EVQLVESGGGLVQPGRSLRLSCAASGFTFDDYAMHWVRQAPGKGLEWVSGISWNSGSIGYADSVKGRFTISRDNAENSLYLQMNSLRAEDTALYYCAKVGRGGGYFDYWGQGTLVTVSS

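The starting antibody came from a phage panning campaign against this peptide. In library AAYL51, one, two or three CDR residues were substituted; doubles and triples were drawn at random. The assay is AlphaSeq: two haploid yeast populations carry antibody and antigen on their surface. After mating in shaken culture at 30 °C for 16 h, diploids were selected and their barcode pairs sequenced. Read counts were normalised to the haploid input and turned into Kd by a linear fit to BCL2-family pairs of known affinity, for each replicate. The assay was run in three technical replicates.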

The whole VH of each variant is written out.
Numbers give log10(Kd / nM), so 0 is 1 nM and 3 is 1 µM. Smaller is tighter.
Replicates are averaged; those with no signal do not enter the mean.
"no signal" marks a missing value. The strain was present, yet no cells mated with the target were sequenced in any replicate, which points to weak or no binding.
For reference, the parent read 1.86 as the reference entry and 0.88 as a member of this library.
Nonspecific signal, from three strains lacking the peptide, appeared in 21% of pairings of library AAYL51, centred on 4.54 (5% of these signals below 3.26); values are not corrected for it.

mean, log10 nM | replicates with signal | VH
3.65 | 1 of 3 | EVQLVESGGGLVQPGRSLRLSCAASGFTFDDYAMVWVRQAPGKGLEWVSGISWNHGSIGYADSVKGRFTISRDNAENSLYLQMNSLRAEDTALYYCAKSGRGGGYFDYWGQGTLVTVSS
5.06 | 2 of 3 | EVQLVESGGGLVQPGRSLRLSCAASGFTFDDYAMHWVRQAPGKGLEWVSGISWNSGSIGSADSVKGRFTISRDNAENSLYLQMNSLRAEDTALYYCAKMGRGGKYFDYWGQGTLVTVSS
3.52 | 2 of 3 | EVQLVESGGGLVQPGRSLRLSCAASGFTFDDYAMHWVRQAPGKGLEWVSGISWNSGSMGYAISVKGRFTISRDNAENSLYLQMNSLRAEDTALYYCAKVGVGGGYFDYWGQGTLVTVSS
no signal | 0 of 3 | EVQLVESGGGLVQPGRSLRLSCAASGFTFDDYAMHWVRQAPGKGLEWVSGIIWNSGSIGYADSVKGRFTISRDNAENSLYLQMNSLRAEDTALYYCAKVGRKGGYFMYWGQGTLVTVSS
4.30 | 1 of 3 | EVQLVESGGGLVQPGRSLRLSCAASQFTFDYYAMHWVRQAPGKGLEWVSGISWNSGSIGYADSVKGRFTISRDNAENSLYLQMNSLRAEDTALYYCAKVHRGGGYFDYWGQGTLVTVSS
3.99 | 1 of 3 | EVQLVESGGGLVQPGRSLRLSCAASGFTFDDYAMHWVRQAPGKGLEWVSGISWNSGSIGYCNSVKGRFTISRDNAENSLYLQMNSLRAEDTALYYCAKVGRPGGYFDYWGQGTLVTVSS
no signal | 0 of 3 | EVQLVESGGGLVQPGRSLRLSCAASGFTFDMYAMHWVRQAPGKGLEWVSGISWNSGSIGYADSVKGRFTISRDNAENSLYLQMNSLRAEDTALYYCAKVGRGGNYFWYWGQGTLVTVSS
no signal | 0 of 3 | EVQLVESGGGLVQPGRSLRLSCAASGFTFDDRAMHWVRQAPGKGLEWVSGISWNSWSIGYADSVKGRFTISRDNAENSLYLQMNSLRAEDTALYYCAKVGRGGGYFDYWGQGTLVTVSS
2.83 | 2 of 3 | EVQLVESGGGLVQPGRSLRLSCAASGFTFDDYAMHWVRQAPGKGLEWVSGISWNSGSIGYADSVWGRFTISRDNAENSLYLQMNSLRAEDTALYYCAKVNRGGGYFTYWGQGTLVTVSS
4.97 | 1 of 3 | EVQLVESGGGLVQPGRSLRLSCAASGFTFDDYLMHWVRQAPGKGLEWVSGISWNCGSIGYADSVKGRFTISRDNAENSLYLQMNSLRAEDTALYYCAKVGRGGGYFDYWGQGTLVTVSS
4.05 | 1 of 3 | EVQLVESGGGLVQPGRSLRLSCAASGFTFDDYAMHWVRQAPGKGLEWVSGISWNSGGIGYADSVKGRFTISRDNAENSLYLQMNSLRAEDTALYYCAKVGRWGGYCDYWGQGTLVTVSS
5.66 | 1 of 3 | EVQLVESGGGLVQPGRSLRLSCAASGFTFIDYAMHWVRQAPGKGLEWVSGISWNSGSIGYAMSVVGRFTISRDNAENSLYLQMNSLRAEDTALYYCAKVGRGGGYFDYWGQGTLVTVSS
no signal | 0 of 3 | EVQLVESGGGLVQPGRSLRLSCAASGFPFSDYAMHWVRQAPGKGLEWVSGISWNSGWIGYADSVKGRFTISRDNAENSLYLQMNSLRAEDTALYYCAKVGRGGGYFDYWGQGTLVTVSS
no signal | 0 of 3 | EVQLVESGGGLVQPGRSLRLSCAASGFTFDDRAMHWVRQAPGKGLEWVSGISWNSGSIGYDDSVKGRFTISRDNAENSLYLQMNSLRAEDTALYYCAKVGRGGGQFDYWGQGTLVTVSS
0.99 | 3 of 3 | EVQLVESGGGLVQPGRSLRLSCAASGFTFGDYAMHWVRQAPGKGLEWVSGISWNSGSIGYAISVKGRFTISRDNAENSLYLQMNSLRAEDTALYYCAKVGRGGGYFPYWGQGTLVTVSS
3.82 | 2 of 3 | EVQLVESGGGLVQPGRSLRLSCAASGFTFDDYAMHWVRQAPGKGLEWVSAISWNSGSIGYGDSVKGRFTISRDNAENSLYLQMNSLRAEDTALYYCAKVGRGGGYFMYWGQGTLVTVSS

Reference: Engelhart et al. 2022, doi:10.1038/s41597-022-01779-4. File: FLAb, binding data.